The chains behind the UniProt entries cited, without tags or fusion partners.
ATP-dependent Clp protease proteolytic subunit (Bacillus subtilis (strain 168)), P80244, UniProt P80244, whole entry, looked up: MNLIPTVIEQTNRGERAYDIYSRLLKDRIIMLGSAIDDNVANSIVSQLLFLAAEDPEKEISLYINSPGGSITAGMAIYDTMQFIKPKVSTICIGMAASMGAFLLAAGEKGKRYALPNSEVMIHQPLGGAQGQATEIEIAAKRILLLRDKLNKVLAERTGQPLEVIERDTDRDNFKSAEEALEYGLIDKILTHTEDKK

# ClpP mod – qHTS Assay for Activators of ClpP; Potency, µM (series often up to 57.5 µM), for the others: at the highest dose activity change, negative = active; actives 1.9% (n = 340,000); ATP-dependent Clp protease proteolytic subunit (Bacillus subtilis (strain 168)), P80244; purified B. subtilis ClpP, FRET peptide cleavage, 20 min; active = well fitted falling curve with a large enough effect; inconclusive = small, poorly fitted or top-dose-only effect; inactive = no such curve, though single readings can be large or run the other way; note: potency is the fitted concentration of half-maximal effect; the source files actives as falling curves though it sought activators and does not explain the sign; nearly all actives have a fitted effect of over 65% in size
#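 Buffer: 100 mM Tris/HCl pH8, 100 mM KCl, 0.05% low protease BSA, 2.5% glycerol, 0.01% Tween-20. ClpP 10 microg/mL final; 20 min RT; delta FRET normalized to ADEP and DMSO controls.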
# Nrf2 activator – Nrf2 pathway activation. AREc32 ARE-luciferase reporter (MCF7-derived line), luminescence, 24 h. Potency, µM (doses to about 46.1 µM), inactives show at the top dose activation, hits mostly activators. actives 0.31% (n = 410,000). AID 624171; note: potency is the fitted concentration of half-maximal effect; % of control where 0% means no effect; nearly all actives have a fitted effect of over 65% in size
#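 ARE-driven firefly luciferase activity in AREc32 cells measured after a 24 hr compound exposure at 37 deg C, using Steady-Glo reagent and a 30 min room-temperature hold.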
# Nrf2 block – inhibitors of Nrf2 signaling | actives 2.1% (n = 360,000) | Potency, µM (highest dose often 46 µM), for inactives: top-dose activity change, negative = inhibition, usual class: inhibitors | A549 ARE-Fluc reporter, luciferase luminescence, 18-24 h; note: potency is the fitted concentration of half-maximal effect; % is set by controls: 0 for no effect and ±100 for the full control effect; nearly all actives have a fitted effect of over 60% in size
#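 Reporter: ARE-Fluc in A549. Exposure: 18-24 h, 37 °C, 5% CO2, 5% FBS OPTI-MEM. Readouts: fluorescent cytotoxicity (CellTiter-Fluor), then luminescent Nrf2 signal after BugLite.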
# TCR act – activates T cell receptor signaling | primary human leukocytes, anti-CD3, IL-2 HTRF, 48 h | Potency, µM (doses to about 9.22 µM), without a hit: top-dose activation of IL-2 secretion, actives largely listed as activators | 330,000 tested, under 10 active; note: % of control where 0% means no effect
#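 TCR engagement came from a-CD3 beads alone, with compounds added to primary human leukocytes for 48 hr. Secreted IL-2 bridged europium cryptate- and d2-labelled anti-IL-2 antibodies, giving FRET emission at 665nm after 320nm excitation.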
# A549 tox – A549 cytotoxicity, counter-screen for Nrf2 inhibitors; AID 504648; actives 0.16% (n = 390,000); Potency, µM (doses to about 46 µM), inactives show top-dose activity change, negative = cytotoxicity, most hits filed as inhibitors; A549 ARE-Fluc cells, CellTiter-Fluor viability, 18-24 h; note: potency is the fitted concentration of half-maximal effect; % is set by controls: 0 for no effect and ±100 for the full control effect
#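 Cytotoxicity counterscreen: CellTiter-Fluor fluorescence was measured in A549 ARE_Fluc cells after 18-24 h of compound exposure in a concentration series. The subsequent BugLite luminescent read reports ARE-luciferase activity.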
# miR-21 reporter – miR-21 reporter, rising signal; HeLa miR-21 FLuc reporter, luciferase, 48 h; Potency, µM (titrated, usually from 38.3 µM), without a hit: top-dose reporter change, positive = more light; AID 2288; 340,000 tested, under 10 active; active = well fitted rising curve with a large enough effect; inconclusive = small, poorly fitted or top-dose-only effect; inactive = no such curve, though single readings can be large or run the other way;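 further: % of control where 0% means no effect; miR-21 action dims this reporter so a rising signal means less miR-21 action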
#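 HeLa cells stably expressing CMV-driven firefly luciferase with a downstream miR-21 binding sequence, endogenously expressing miR-21, were treated with titrations (up to about 40uM final) for 48 hours at 37 degree Celsius. Luciferase luminescence was read after lysis.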
# Starred values were filed as active, the others as inactive; u = inconclusive; x = no result given; ! = not active in a repeat; [ ] = remark or other dose. Sampled rows, rich in hits. Any-hit rate of the full collection: about 3.7%. Unless noted, calls come from the whole dose curve; as a rule, active = well fitted curve in the direction sought with a large enough effect; inconclusive = small, poorly fitted or top-dose-only effect, or another doubt; inactive = no such curve, though single readings can be large; an effect the other way counts as inactive or inconclusive.
# Screens by letter: A = ClpP mod; B = Nrf2 activator; C = Nrf2 block; D = TCR act; E = A549 tox; F = miR-21 reporter
1	Cc1ccc(-c2nnc(Nc3ccc(O)cc3)c3ccccc23)cc1S(=O)(=O)N1CCOCC1
  A: 4% | B: -1% | C: u | D: x | E: -5% | F: 16%
2	Cc1cccc2c1=NC(=O)/C(=C/c1c(O)[nH]c(=O)[nH]c1=O)C=2
  A: 13µM* | B: 3% | C: -5% | D: -2%[46.1 µM] | E: 1% | F: -8%
3	CCOC(=O)C(O)(c1ccc(NC(=S)NC(=O)c2ccc(Cl)cc2Cl)c(C)c1)C(F)(F)F (stereo not given)
  A: -2% | B: -1% | C: 15µM* | D: 0%[46.1 µM] | E: u | F: u
4	COc1ccc(C2=C(C(C)=O)Sc3nnc(-c4ccc(Cl)cc4)n3N2C(C)=O)cc1OC
  A: u | B: 4% | C: x | D: x | E: 0% | F: 0%
5	O=C(CNC(=O)OCc1ccccc1)Nc1ccc(Br)cc1C(=O)c1ccccc1
  A: 0% | B: 2% | C: u | D: 2% | E: -20% | F: 11%
6	O=C(CNC(=O)OCc1ccccc1)NCC(=O)Nc1ccc(Br)cc1C(=O)c1ccccc1
  A: 25µM* | B: 0% | C: 3% | D: -3%[46.1 µM] | E: 0% | F: 9%
7	Cc1nc2ccc(NC(=O)C3COc4ccccc4O3)cc2s1 (stereo not given)
  A: -1% | B: 0% | C: 11% | D: -2% | E: 9% | F: -74%
8	COc1ccccc1C(=O)Nc1ccc2nc(SCC(=O)N3CCCc4ccccc43)sc2c1
  A: 10µM* | B: 4% | C: 18µM* | D: x | E: -6% | F: 21%
9	CCn1c(P(C)(=O)O)nc2cc(NC(=O)c3ccccc3F)ccc21
  A: x | B: 0% | C: 11% | D: -5% | E: 3% | F: -2%
10	O=C(Nc1ccc2nc(SCC(=O)N3CCCc4ccccc43)sc2c1)c1ccccc1F
  A: 18µM* | B: 0% | C: u | D: x | E: -16% | F: 23%
11	O=c1c(-c2ccccc2)c(O)c2ccccc2n1-c1ccccc1
  A: u | B: 14% | C: 2% | D: 3% | E: -8% | F: -4%
12	CCOC(=O)Cn1c(=O)oc2cc(S(=O)(=O)N3CCN(c4ccccc4F)CC3)ccc21
  A: 0% | B: 0% | C: 3% | D: x | E: u | F: 3%
13	O=C1NCc2c1c1c3ccccc3[nH]c1c1[nH]c3ccccc3c21
  A: 4% | B: x | C: u | D: x | E: -21% | F: x
14	O=c1c2ccccc2nc(N2CCCC2)n1-c1ccc(Cl)cc1
  A: 22µM* | B: 0% | C: 8% | D: 2% | E: -13% | F: -2%
15	COc1nc2ccccc2c(=O)n1-c1ccc(Cl)cc1
  A: -2% | B: 4% | C: u | D: -6%[46.1 µM] | E: 1% | F: -16%
16	CC(=O)OC(C)(C)/C=C/C(=O)C(C)(O)C1C(O)CC2(C)C3CC=C4C(CC(O)C(=O)C4(C)C)C3(C)C(=O)CC12C (stereo not given)
  A: 1% | B: -1% | C: u | D: -3% | E: 2.9µM* | F: x
17	CC(=O)OC(C)(C)/C=C/C(=O)[C@](C)(O)[C@H]1[C@H](O)C[C@@]2(C)[C@@H]3CC=C4[C@H](C[C@H](O)C(=O)C4(C)C)[C@]3(C)C(=O)C[C@]12C
  A: -1% | B: -3% | C: u | D: 12% | E: u | F: u
18	Cc1ccc(NC(=O)COC(=O)/C=C/c2ccco2)cc1S(=O)(=O)N(C)C
  A: 1% | B: u | C: 9% | D: -4%[46.1 µM] | E: 0% | F: -2%
19	CN1CCN(S(=O)(=O)c2ccc(C3CCCCC3)cc2)CC1
  A: u | B: 0% | C: 15% | D: 2% | E: 12% | F: x
20	O=C(CC1CCCCC1)N1CCC(c2nc(-c3ccc(S(=O)(=O)N4CCCC4)cc3)no2)CC1
  A: -4% | B: 0% | C: 21µM* | D: -2% | E: -22% | F: -2%
21	CCCNS(=O)(=O)c1ccc(OCC(=O)N2CCN(Cc3ccc4c(c3)OCO4)CC2)c(C)c1
  A: -2% | B: 7% | C: 12µM* | D: -1% | E: 4% | F: x
22	CCCNS(=O)(=O)c1ccc(OCC(=O)N2CCN(Cc3ccc4c(c3)OCO4)CC2)cc1
  A: -1% | B: 0% | C: 8.2µM* | D: 2% | E: -13% | F: 17%
23	Cc1ccc(OCC(=O)N2CCN(Cc3ccc4c(c3)OCO4)CC2)cc1
  A: x | B: 2% | C: -12% | D: 2% | E: 2% | F: 6%
24	COc1ccccc1CNc1nc(NCc2ccccc2SC)c2sccc2n1
  A: u | B: -1% | C: x | D: x | E: x | F: x
25	COc1nc(NC2CCCCC2)nc(NC(C)(C)C)n1
  A: -1% | B: 11% | C: u | D: -6% | E: -2% | F: x
26	C#C[C@]1(O)CCC2C3C(=O)C=C4C=CCC[C@]4(C)C3CC[C@@]21C (stereo not given in full)
  A: x | B: 0% | C: -5% | D: -31% | E: 10% | F: x
27	C#CC1(O)CCC2C3CCC4=CC(=O)CCC4=C3C=CC21C (stereo not given)
  A: 28µM* | B: 4% | C: -15% | D: -3% | E: 0% | F: x
28	CC(Sc1ncnc2sccc12)C(=O)Nc1ccc(S(=O)(=O)N2CCOCC2)cc1 (stereo not given)
  A: -1% | B: 2% | C: u | D: -3% | E: 1% | F: x
29	CCN(CC)c1nc2ccccc2nc1C(=O)Nc1cccc(C(C)=O)c1
  A: 1% | B: 17% | C: x | D: x | E: -24% | F: u
30	CC(C)CC1C(=O)N2CCC[C@H]2[C@]2(O)O[C@](NC(=O)[C@@H]3C=C4c5cccc6[nH]c(Br)c(c56)C[C@H]4N(C)C3)(C(C)C)C(=O)N12 (stereo not given in full)
  A: -17% | B: x | C: 16µM* | D: x | E: -5% | F: x
31	CC(=O)NCC(N)C(=O)c1ccc(Cl)c(Cl)c1 (stereo not given)
  A: 1% | B: x | C: x | D: x | E: x | F: x
32	CCOc1ccc(NC(=O)C2C(C(=O)O)C3(Cl)C(Cl)=C(Cl)C2(Cl)C3(Cl)Cl)cc1 (stereo not given)
  A: x | B: 0% | C: u | D: -2% | E: 2% | F: 1%
33	CCC(COC(=O)c1cc(OC)c(OC)c(OC)c1)(c1ccccc1)N(C)C (stereo not given)
  A: -4% | B: 8% | C: 21µM*! | D: 3% | E: 0% | F: -9%
34	CCc1nn(CC(=O)N2CCN(Cc3ccc4c(c3)OCO4)CC2)c(=O)c2cc3occc3n12
  A: -1% | B: 3% | C: u | D: -5%[46.1 µM] | E: -11% | F: 9%
35	O=C(NCCSc1c(-c2ccc(F)cc2)[nH]c2ccccc12)c1ccc(S(=O)(=O)N2CCOCC2)cc1
  A: -3% | B: 3% | C: u | D: x | E: -9% | F: u
36	O=[N+]([O-])/C=C/c1c(Cl)cccc1Cl
  A: 0% | B: 14µM* | C: -26% | D: -3% | E: -6% | F: x
37	O=C(O)/C=C/c1cccc(B(O)O)c1
  A: 1% | B: x | C: u | D: x | E: 14% | F: x
38	Cc1ccc(-c2c(C)n3c4c(=O)n(C)c(=O)n(C)c4nc3n2CCO)cc1
  A: 1% | B: 0% | C: x | D: x | E: -20% | F: u
39	CCc1cccc(NC(=O)c2ccc(NC(=O)N3CCSc4ncccc43)cc2)c1
  A: u | B: 5% | C: u | D: x | E: -10% | F: -32%
40	Cc1ccc(Cl)cc1N1CCN(C(=O)c2cn(CC(C)C)c(=O)c3c2c2ccccc2n3C)CC1
  A: 13µM* | B: 0% | C: -10% | D: x | E: -5% | F: -2%
